Experimental data published in patent publication US9403767B2, “Substituted 4-aminocyclohexane derivatives” (dated 2016).

By UniProt entry, the sequences of proteins in these tests, tags left out. Where a name states a change or a piece, a line headed by the entry shows the natural chain unless it says otherwise.
UniProt P41145: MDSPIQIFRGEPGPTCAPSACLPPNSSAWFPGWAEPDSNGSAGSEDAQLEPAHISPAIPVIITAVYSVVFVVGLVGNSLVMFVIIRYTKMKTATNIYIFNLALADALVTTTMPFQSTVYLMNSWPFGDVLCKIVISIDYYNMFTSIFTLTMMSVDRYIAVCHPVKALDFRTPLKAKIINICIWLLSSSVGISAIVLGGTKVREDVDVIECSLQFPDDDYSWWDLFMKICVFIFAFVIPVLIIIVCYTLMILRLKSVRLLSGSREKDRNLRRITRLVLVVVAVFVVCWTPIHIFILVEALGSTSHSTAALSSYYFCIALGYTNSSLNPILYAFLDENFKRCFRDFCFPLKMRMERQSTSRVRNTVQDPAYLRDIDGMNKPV
UniProt P35372, whole entry, looked up: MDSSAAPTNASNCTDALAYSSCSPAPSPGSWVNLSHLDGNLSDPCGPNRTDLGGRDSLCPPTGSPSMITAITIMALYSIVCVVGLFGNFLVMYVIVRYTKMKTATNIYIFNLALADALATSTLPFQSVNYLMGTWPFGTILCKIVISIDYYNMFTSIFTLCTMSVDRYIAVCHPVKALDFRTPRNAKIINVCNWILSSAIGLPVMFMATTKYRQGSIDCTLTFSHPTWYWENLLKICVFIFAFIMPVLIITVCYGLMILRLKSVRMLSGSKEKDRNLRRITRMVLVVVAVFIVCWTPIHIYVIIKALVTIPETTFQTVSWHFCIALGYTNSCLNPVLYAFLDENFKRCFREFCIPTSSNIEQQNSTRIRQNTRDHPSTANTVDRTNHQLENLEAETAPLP
UniProt P41146: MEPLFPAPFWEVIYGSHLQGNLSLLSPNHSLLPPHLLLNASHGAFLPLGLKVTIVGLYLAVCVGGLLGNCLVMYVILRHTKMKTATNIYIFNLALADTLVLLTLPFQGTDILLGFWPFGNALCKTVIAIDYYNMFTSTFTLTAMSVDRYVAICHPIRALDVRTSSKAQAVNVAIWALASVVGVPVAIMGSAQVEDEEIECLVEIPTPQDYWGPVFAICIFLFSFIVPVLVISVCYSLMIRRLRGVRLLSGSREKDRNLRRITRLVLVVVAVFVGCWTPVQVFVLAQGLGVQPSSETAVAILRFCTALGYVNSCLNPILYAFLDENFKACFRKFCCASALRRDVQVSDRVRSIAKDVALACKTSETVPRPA

Assays:
human κ-opiate receptor = human κ-opiate receptor (Homo sapiens (Human), UniProt P41145); assay: kappa-opiate receptor binding assay with [3H]-CI-977 (CHO-K1 membrane preparation); conditions: for Ki: read-out: Ki (kappa) Mean, comparison table type E; for Ki (kappa)/Ki (ORL1): selectivity, 1/[Ki(ORL1)/Ki(kappa)]
human μ-opiate receptor = human μ-opiate receptor (Homo sapiens (Human), UniProt P35372); assay: μ-opiate receptor binding assay with [3H]-naloxone (CHO-K1 membrane preparation); conditions: for % Inhibition (μ) [1 μM]: test concentration 1 μM; for Ki (μ)/Ki (ORL1): selectivity, 1/[Ki(ORL1)/Ki(μ)]; for Ki: read-out: Ki (μ) Mean
ORL 1-receptor = ORL 1-receptor (Homo sapiens (Human), UniProt P41146); assay: ORL 1 receptor binding assay with 3H-nociceptin/orphanin FQ (membranes of recombinant CHO-ORL 1 cells); conditions: for % Inhibition (ORL1) [1 μM]: test concentration 1 μM; for Ki: read-out: Ki (ORL1) Mean
[1] = test system: Male Sprague Dawley rats, spinal nerve ligature; assay: Chung model: mononeuropathic pain after spinal nerve ligature (mechanical allodynia, von Frey); conditions: 100 μg/kg

Compound | % Inhibition (μ) [1 μM] (human μ-opiate receptor) [%] | % Inhibition (ORL1) [1 μM] (ORL 1-receptor) [%] | also measured
CNC1(c2ccccc2)CCC(c2ccccc2)(N(C)C)CC1 (single isomer, unassigned) | 49 | 80 | Ki (human κ-opiate receptor): 1170 nM
CNC1(c2ccccc2)CCC(c2ccccc2)(N(C)C)CC1 (stereo not drawn) | 30 | 14 | Ki (kappa)/Ki (ORL1) (human κ-opiate receptor): 65; Ki (μ)/Ki (ORL1) (human μ-opiate receptor): 36; Ki (ORL 1-receptor; comparison table type E): 18 nM
CNC1(c2ccccc2)CCC(c2cccs2)(N(C)C)CC1 (single isomer, unassigned) | 93 | 73 | 
COCc1c(C2(OCc3ccccc3)CCC(c3ccccc3)(N(C)C)CC2)[nH]c2ccccc12 (stereo not drawn) | 98 | 83 | 
Cc1c(C2(N3CCCC3)CCC(c3ccccc3)(N(C)C)CC2)[nH]c2ccc(F)cc12 (single isomer, unassigned) | 21 | 52 | 
COc1ccc(Oc2nc(Oc3ccc(OC)cc3)nc(N(C)C3(c4ccccc4)CCC(c4ccccc4)(N(C)C)CC3)n2)cc1 (stereo not drawn) | 64 | 25 | 
CNC1(c2ccccc2)CCC(c2ccc(C(F)(F)F)cc2)(N(C)C)CC1 (stereo not drawn) | 77 | 28 | 
(4-benzyl-4-((dimethylamino)methyl)-N-methyl-1-phenylcyclohexanamine | 42 | 9 | Ki (human μ-opiate receptor): 1110 nM; Ki (ORL 1-receptor): 3960 nM
Cc1c(C2(N3CCCC3)CCC(c3ccccc3)(N(C)C)CC2)[nH]c2ccccc12 (stereo not drawn) | 61 | 36 | 
CN(C)c1nc(N(C)C)nc(N(C)C2(c3ccccc3)CCC(c3ccccc3)(N(C)C)CC2)n1 (stereo not drawn) | 46 | 15 | 
CN(C)C1(c2ccccc2)CCC(c2ccccc2)(N(C)C)CC1 (single isomer, unassigned) | 59 | 87 | Ki (human κ-opiate receptor): 1160 nM; MPE (%), (Dose in μg/kg, rat, i.v.) [1]: 25 (100) %
N-((1-butyl-4-(dimethylamino)-4-phenylcyclohexyl)methyl)-4-chlorobenzol sulphonamide 2-hydroxypropane-1,2,3-tricarboxylate | 96 | 94 | Ki (human μ-opiate receptor): 47.5 nM; Ki (ORL 1-receptor): 17 nM
CN(C)C1(c2ccccc2)CCC(c2ccccc2)(N(C)C(=O)c2cccc(C(F)(F)F)c2)CC1 (single isomer, unassigned) | 100 | 97.5 | 
CN(C)C1(c2ccccc2)CCC(c2ccccc2)(N(C)C)CC1 (stereo not drawn) | 34 | 18 | Ki (kappa)/Ki (ORL1) (human κ-opiate receptor): 193; Ki (μ)/Ki (ORL1) (human μ-opiate receptor): 100
Cc1c(C2(N3CCCC3)CCC(c3ccccc3)(N(C)C)CC2)[nH]c2ccccc12.Cl.Cl (stereo not drawn) | 18 | 61 | 
CN(C)C1(c2ccccc2)CCC(c2ccccc2)(N(C)CCO)CC1 (stereo not drawn) | 28 | 18 | 
CCOC1(c2[nH]c3ccccc3c2COC)CCC(c2ccccc2)(N(C)C)CC1.O=C(O)CC(O)(CC(=O)O)C(=O)O (stereo not drawn) | 65 | 18 | 
CN(C)C1(C(=N)c2cc3ccccc3n2C)CCC(c2ccccc2)(N(C)C)CC1.O=C(O)CC(O)(CC(=O)O)C(=O)O.O=C(O)CC(O)(CC(=O)O)C(=O)O (single isomer, unassigned) | 46 | 26 | 

Read-outs that look alike come from different tables or passages of the source.
